Measurements reported in PubChem BioAssay AID602282 (Johns Hopkins Ion Channel Center, 2012).
Only a part is listed here, and it is no random draw. Activity calls are given as the source filed them.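 The calls were made as follows: active = inhibition above 3 SD of the buffer control wells (cut at about 41% in these data); inactive = the rest.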

Experiment: inhibition of M3R-evoked calcium signal on retest – cell-based, HEK293 M3R/RGS4 inducible, calcium flux, duplicate, RGS4 activator project, confirmation (AID 602282);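 also: signal is the integrated peak-minus-minimum Fluo4 fluorescence over baseline ratio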
Details: carbachol calcium flux Fluo4, at 10 µM, active compounds read high

SMILES | inhibition
O=C(OC1CN2CCC1CC2)c1cccc(Cl)c1 (stereo not given) | active: 86.5%
CN1CCCC(OC(=O)C(c2ccccc2)c2ccccc2)C1 (stereo not given) | active: 91%
O=C(OC1CN2CCC1CC2)C12CC3CC(CC(C3)C1)C2 (stereo not given) | active: 91.5%
O=C(OC1CN2CCC1CC2)c1ccc(Cl)cc1 (stereo not given) | active: 59%
CN(C(=O)Cc1ccccc1)[C@@H]1CC[C@]2(CCCO2)C[C@H]1N1CCCC1 | inactive: 0%
